The nature of the data set: Solubility of the complexes in solvents. The following applies: solvent not stated.

With “cis-[1,2-diaminodiamantane]oxalatoplatinum(II) [(S,S)-2]”, the solubility result is given as “very low solubility”.

(Values after EP3795574A1, “SYNTHESIS AND USAGE OF 1,2-DIAMINODIAMANTANE PLATINUM(II) COMPLEXES” (Justus-Liebig-Universität Gießen, priority 2019, dated 2021).)
